According to patent US20100255521A1, “Fluorescent substrates for Detecting organophosphatase enzyme activity” (published 2010):

Molecular target: OPH (Brevundimonas diminuta, UniProt P0A434)
Assay: OPH detection sensitivity and kinetics of OPH mediated hydrolysis (Example 7)
Conditions: 100 μM DEPFMU or 1.2 mM paraoxon, 30 min at 37° C.; assuming 100% purity and activity

Molecule | level of reliable detection of OPH per well
7-diethyl-phospho-6,8-difluoro-4-methylumbelliferyl | 1 fmol
CCOP(=O)(OCC)Oc1ccc([N+](=O)[O-])cc1 | around 100 fmol
